Results on 1 sequence are retold here after patent US10239916B2, “Controlled modulation of amino acid side chain length of peptide antigens” (Board of Regents, The University of Texas System, priority 2002, dated 2019).

In the test the test system is E75- and S5K-CTL lines. Put plainly: Fas (CD95)-mediated apoptosis / cell cycle analysis in CTL lines. Also noted: inhibition of residual Fas-apoptosis: dose or concentration left out as unconfirmed.

Where only a bound is given, the exact number is not on record here.

Take KIFGKLAFL [S5K]: where the note is “S5K-CTL, CH11, 24 h, 5 and […] μg/ml”, the “inhibition of residual Fas-apoptosis” value is reported as “inhibited the residual Fas-apoptosis within 24 h”. Where the note is “after multiple rounds of F42 stimulation”, the “residual Fas-mediated apoptosis of F42SK-CTL” value is recorded as no less than 30%. The “inhibition of apoptosis (subG1) of S5K-CTL vs unstimulated” value (peptide + CH11) was determined as 24% and the “inhibition of apoptosis (subG1) of S5K-CTL vs unstimulated” value (peptide alone) is 63%. The “apoptotic CTL after stimulation with the inducing peptide” value (three days after stimulation, in the presence of CH11) turned out to be 15.4%.
